Assay [1] deals with T1, PDK1 (Homo sapiens (Human), UniProt O15530). The assay can be described thus: Test for the inhibition of PDK1 (enzymatic flashplate assay). It counts as biochemical. Particulars: His6-PDK1(Δ1-50), 4 μM ATP. As for the experimental part: 4. Test for the Inhibition of PDK1
The experimental batches are carried out in a flashplate system with 384 wells/microtitration plate.
The test substances are employed in corresponding concentrations (if desired in a dilution series). The control is carried out without test substance. The reaction is stopped using standard methods and washed. The activity of the kinase is measured via the incorporated radioactivity in top count. In order to determine the non-specific kinase reaction (blank value), the experimental batches are carried out in the presence of 100 nM staurosporine.
The radioactivity (decompositions per minute) of the blank value (no use of test substance in the presence of staurosporine) is subtracted from all other radioactivity values. The controls (kinase activity without test substance) are set equal to 100 percent and all other radioactivity values (after subtracting the blank value) are expressed set in relation thereto (for example in % of the control).

By UniProt entry, the sequences of proteins in these tests, tags left out. Residues count along the entry.
UniProt O15530, 51-556: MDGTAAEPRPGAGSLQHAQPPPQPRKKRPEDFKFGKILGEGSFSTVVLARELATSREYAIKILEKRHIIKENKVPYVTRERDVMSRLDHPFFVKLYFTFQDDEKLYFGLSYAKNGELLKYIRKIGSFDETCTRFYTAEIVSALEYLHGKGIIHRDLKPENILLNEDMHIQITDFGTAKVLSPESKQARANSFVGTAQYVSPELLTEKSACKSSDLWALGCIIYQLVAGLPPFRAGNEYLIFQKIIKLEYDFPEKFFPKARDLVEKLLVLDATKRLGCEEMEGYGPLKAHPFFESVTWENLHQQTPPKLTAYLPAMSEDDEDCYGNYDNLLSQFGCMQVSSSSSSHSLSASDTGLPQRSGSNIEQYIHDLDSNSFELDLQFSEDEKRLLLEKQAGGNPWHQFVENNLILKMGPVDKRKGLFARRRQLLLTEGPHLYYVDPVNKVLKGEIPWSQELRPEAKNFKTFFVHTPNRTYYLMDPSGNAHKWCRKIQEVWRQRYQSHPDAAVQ

Assay [2] deals with T1, PDK1. The assay can be described thus: Cellular testing of PDK1 kinase inhibitors in PC3 cells (Luminex, phospho-T308-PKB). It counts as cell-based. As for the experimental part:
Method for the Cellular Testing of PDK1 Kinase Inhibitors in PC3 Cells
The cellular assay for the determination of the PDK1 kinase activity is carried out as a Luminex assay in the 96-well format. PC3 cells are sown at 20,000 cells per well in 100 μl of medium (45% of […]/45% of Ham's F12/10% of FCS) and incubated on the following day for 30 min with a serial dilution of the test substance (7 concentrations) under serum-free conditions. The cells are subsequently lysed using 90 μl of lysis buffer (20 mM tris/HCl pH 8.0, 150 mM NaCl, 1% of NP40, 10% of glycerol, 1% of phosphatase inhibitor I, 1% of phosphatase inhibitor II, 0.1% of protease inhibitor cocktail III, 0.01% of benzonase) per well, and the lysates are separated off from insoluble cell constituents by means of centrifugation through a 96-well filter plate (0.65 μm). The lysates are incubated overnight at 4° C. with shaking with Luminex beads to which an anti-total PKB antibody is coupled. The detection is carried out on the following day by addition of a phospho-T308-PKB antibody and a species-specific peroxidase-labelled secondary antibody. […] The values of the batches treated with test substance are calculated therefrom as percentage of control, and IC50 values are determined by means of RS1.

The structures appear in SMILES notation.

`Cn1cc(-c2cnc3[nH]cc(-c4cc(N(CCC(N)=O)c5ccccc5)nc(N)n4)c3c2)cn1` [A35, 3-({2-Amino-6-[5-(1-methyl-1H-pyrazol-4-yl)-1H-pyrrolo[2,3-b]-pyridin-3-yl]pyrimidin-4-yl}phenylamino)propionamide]: the figures for the IC50 at PDK1 [1] and against PDK1 [2] were 0.017 µM and 23 µM, respectively.

For the origin of these results see patent publication US9238651B2, “1-H-pyrrolo[2,3-b]pyridine derivatives” (Merck Patent GmbH, priority 2010, dated 2016).
